Reference: US12589092B2, “Polycyclic compound acting as kinase inhibitor” (HANGZHOU INNOGATE PHARMA CO., LTD., priority 2020, dated 2026)

The chains behind the UniProt entries cited, without tags or fusion partners.
UniProt Q00534, whole entry: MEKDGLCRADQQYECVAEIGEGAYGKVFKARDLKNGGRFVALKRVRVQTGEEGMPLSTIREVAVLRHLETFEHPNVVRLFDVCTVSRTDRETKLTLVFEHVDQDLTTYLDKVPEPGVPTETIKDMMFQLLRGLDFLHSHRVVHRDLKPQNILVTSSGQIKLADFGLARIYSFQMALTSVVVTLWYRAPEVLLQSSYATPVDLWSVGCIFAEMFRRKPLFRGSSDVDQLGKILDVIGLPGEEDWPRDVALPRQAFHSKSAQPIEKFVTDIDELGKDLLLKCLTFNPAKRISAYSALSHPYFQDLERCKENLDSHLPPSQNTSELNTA
UniProt P11802, whole entry: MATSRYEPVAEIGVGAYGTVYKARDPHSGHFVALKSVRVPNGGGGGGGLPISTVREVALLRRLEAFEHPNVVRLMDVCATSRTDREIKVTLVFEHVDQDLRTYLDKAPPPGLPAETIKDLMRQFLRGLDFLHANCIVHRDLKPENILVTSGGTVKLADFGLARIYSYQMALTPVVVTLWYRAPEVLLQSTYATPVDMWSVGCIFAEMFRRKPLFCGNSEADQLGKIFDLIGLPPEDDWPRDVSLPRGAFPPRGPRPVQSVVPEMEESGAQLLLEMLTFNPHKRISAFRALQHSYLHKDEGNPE
UniProt P30281, whole entry partner: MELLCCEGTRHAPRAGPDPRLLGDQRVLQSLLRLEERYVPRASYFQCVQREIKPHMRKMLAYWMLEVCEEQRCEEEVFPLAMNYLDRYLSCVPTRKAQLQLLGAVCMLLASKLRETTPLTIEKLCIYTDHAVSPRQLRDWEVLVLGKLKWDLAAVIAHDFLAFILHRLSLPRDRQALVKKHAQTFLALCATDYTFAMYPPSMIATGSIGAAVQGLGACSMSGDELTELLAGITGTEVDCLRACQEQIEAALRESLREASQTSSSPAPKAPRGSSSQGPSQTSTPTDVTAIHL

How the values were obtained:
Assay type in all cases: biochemical
CDK2/CycA2 = CDK2/CycA2 (Homo sapiens, UniProt P24941); test: CDK2 kinase activity inhibition assay (caliper mobility shift); settings: read-out: CDK2 kinase inhibitory activity (IC50); CDK2/CycA2 12 nM, ATP 39 μM
CDK6/cycD3 = CDK6/cycD3 (Homo sapiens, UniProt Q00534); test: CDK6 kinase activity inhibition assay (caliper mobility shift); settings: read-out: CDK6 kinase inhibitory activity (IC50); CDK6/cycD3 15 nM, ATP 800 μM
CDK4/CycD3 = CDK4/CycD3 (Homo sapiens, UniProt P11802); test: CDK4 kinase activity inhibition assay (caliper mobility shift); settings: read-out: CDK4 kinase inhibitory activity (IC50); CDK4/CycD3 10 nM, ATP 221 μM

CC(=O)c1c(C)c2cnc(Nc3ccc4c(c3)OC[C@@H]3CN(C5CNC5)CCN43)nc2n(C2CCCC2)c1=O gave an IC50 (CDK2/CycA2) of under 100 nM, an IC50 (CDK6/cycD3) of under 10 nM and an IC50 (CDK4/CycD3) of under 10 nM.
